The results in this text go back to patent publication US9492460B2, “Carbazole compounds useful as bromodomain inhibitors” (Bristol-Myers Squibb Company, priority 2013, dated 2016).

Bounds are passed on as bounds.

The target of this experiment is bromodomain BRD4 (44-168), BRD4 (333-460), and BRD4 (1-477 or 44-460) (Homo sapiens, UniProt O60885). Description: Time Resolved Fluorescence Resonance Energy Transfer (TR-FRET) binding assay. The following applies: read-out: FRET BRD4 IC50; one of the FRET assays described. (TR-FRET usually uses a lanthanide donor and a delayed reading to cut background.)
With `Cc1noc(C)c1-c1cc(C(N)=O)c2c3ccc(C(C)(C)O)cc3n(C(CCC(F)(F)F)c3ccccn3)c2c1` (single isomer, unassigned), the half-maximal inhibitory concentration (IC50) was under 50 nM. In the case of `Cc1noc(C)c1-c1cc(C(N)=O)c2c3ccc(C(C)(C)O)cc3n(C(c3ccccc3F)C3CCOCC3)c2c1` (single isomer, unassigned), the IC50 was under 50 nM. In the case of `Cc1noc(C)c1-c1cc(C(N)=O)c2c3ccc(C(C)(C)O)cc3n(C(CCC(F)(F)F)c3ccccc3C(F)(F)F)c2c1` (single isomer, unassigned) it was under 50 nM; in that of `Cc1noc(C)c1-c1cc(C(N)=O)c2c3ccc(C(C)(C)O)cc3n(C(c3ccc(F)cc3F)C3CCOCC3)c2c1` (single isomer, unassigned), under 50 nM. As to `Cc1noc(C)c1-c1cc(C(N)=O)c2c3ccc(C(C)(C)O)cc3n(C(CCC(F)(F)F)c3ccccc3Cl)c2c1` (single isomer, unassigned), the IC50 was under 50 nM. Turning to `Cc1noc(C)c1-c1cc(C(N)=O)c2c3ccc(C(C)(C)O)cc3n(C(c3c(F)cccc3F)C3CCOCC3)c2c1` (single isomer, unassigned), the IC50 was under 50 nM. `Cc1noc(C)c1-c1cc(C(N)=O)c2c3ccc(C(C)(C)O)cc3n(C(c3c(F)cc(F)cc3F)C3CCOCC3)c2c1` (single isomer, unassigned): the IC50 was under 50 nM.

For orientation: IC50 means the concentration that gives 50% inhibition.
